Literature values in patent publication US20240269237A1, “PHARMACEUTICAL COMPOSITION AND KIT COMPRISING AN IMMUNOMODULATORY SUBSTANCE FOR TREATING DISEASES” (ellennbe GmbH, priority 2021, published 2024).

Test system: rheumatoid arthritis
Conditions: Patient 7, history 2008 to April 2021

In the case of abatacept, the “effectiveness of earlier treatment” value is listed as “insufficient effectiveness”.
